From US7615651B2, “Diaryl, dipyridinyl and aryl-pyridinyl derivatives and uses thereof” (Pfizer Inc., priority 2006, dated 2009)

The chains behind the UniProt entries cited, without tags or fusion partners.
UniProt P41145, whole entry: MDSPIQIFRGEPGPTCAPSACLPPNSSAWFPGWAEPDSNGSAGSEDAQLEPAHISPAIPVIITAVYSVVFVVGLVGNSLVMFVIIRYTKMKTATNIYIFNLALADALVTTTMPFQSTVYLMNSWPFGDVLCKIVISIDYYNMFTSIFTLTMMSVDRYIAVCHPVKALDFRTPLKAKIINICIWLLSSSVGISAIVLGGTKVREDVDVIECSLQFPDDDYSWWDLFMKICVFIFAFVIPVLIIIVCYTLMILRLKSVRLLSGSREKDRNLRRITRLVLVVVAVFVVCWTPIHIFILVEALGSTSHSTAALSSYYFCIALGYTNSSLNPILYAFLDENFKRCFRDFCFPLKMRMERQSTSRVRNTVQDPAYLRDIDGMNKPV
UniProt P35372, whole entry: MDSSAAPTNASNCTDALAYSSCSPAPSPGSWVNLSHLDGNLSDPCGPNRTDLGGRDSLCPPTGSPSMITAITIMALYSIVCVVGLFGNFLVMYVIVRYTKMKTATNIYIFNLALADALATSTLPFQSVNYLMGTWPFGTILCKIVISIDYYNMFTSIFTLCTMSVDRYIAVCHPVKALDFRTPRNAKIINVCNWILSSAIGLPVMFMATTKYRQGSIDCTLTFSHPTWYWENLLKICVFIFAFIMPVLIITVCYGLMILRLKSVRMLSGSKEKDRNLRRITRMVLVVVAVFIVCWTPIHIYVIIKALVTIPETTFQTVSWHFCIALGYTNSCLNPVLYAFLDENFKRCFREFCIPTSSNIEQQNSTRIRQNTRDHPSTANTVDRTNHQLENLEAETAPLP
UniProt P41143, whole entry: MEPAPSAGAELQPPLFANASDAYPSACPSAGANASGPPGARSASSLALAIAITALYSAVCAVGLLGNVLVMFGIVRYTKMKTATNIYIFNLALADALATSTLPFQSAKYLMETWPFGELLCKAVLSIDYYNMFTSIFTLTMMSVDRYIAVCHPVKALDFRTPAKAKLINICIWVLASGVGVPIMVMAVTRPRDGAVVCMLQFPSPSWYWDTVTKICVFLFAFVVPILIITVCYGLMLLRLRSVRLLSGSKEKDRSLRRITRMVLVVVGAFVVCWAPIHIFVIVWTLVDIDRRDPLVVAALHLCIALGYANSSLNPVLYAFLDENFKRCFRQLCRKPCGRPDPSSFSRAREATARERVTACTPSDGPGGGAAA

Columns and labels:
Assay type in all cases: biochemical
Details in all cases: average Ki
opioid receptor kappa = opioid receptor kappa (Homo sapiens, UniProt P41145); experiment: GTPγ[35S] binding assay, antagonism of dynorphin-A
opioid receptor mu = opioid receptor mu (Homo sapiens, UniProt P35372); experiment: GTPγ[35S] binding assay, antagonism of endorphin
opioid receptor delta = opioid receptor delta (Homo sapiens, UniProt P41143); experiment: GTPγ[35S] binding assay, antagonism of BW-373U86

Row | Compound | Ki (opioid receptor kappa; read-out: Kappa functional Ki (GTPγ[35S] binding), antagonism of dynorphin-A (10 nM) at kappa opioid receptor membranes, tested form: TFA salt) [nM] | Ki (opioid receptor mu; read-out: Mu functional Ki (GTPγ[35S] binding), antagonism of endorphin (1 μM) at mu opioid receptor membranes, tested form: TFA salt) [nM] | Ki (opioid receptor delta; read-out: Delta functional Ki (GTPγ[35S] binding), antagonism of BW-373U86 (1 nM) at delta opioid receptor membranes, tested form: TFA salt) [nM] | Ki (opioid receptor kappa; read-out: Kappa functional (GTPγ[35S] binding Ki), antagonism of dynorphin-A (10 nM) stimulated GTPγ[35S] binding, kappa opioid receptor membranes, tested form: HCl) [nM] | Ki (opioid receptor mu; read-out: Mu functional (GTPγ[35S] binding Ki), antagonism of endorphin (1 μM) stimulated GTPγ[35S] binding, mu opioid receptor membranes, tested form: HCl) [nM] | Ki (opioid receptor delta; read-out: Delta functional (GTPγ[35S] binding Ki), antagonism of BW-373U86 (1 nM) stimulated GTPγ[35S] binding, delta opioid receptor membranes, tested form: HCl) [nM]
1 | CCOC(=O)N1CCN(Cc2ccc(-c3cccc(C(N)=O)c3)c(Cl)c2)CC1 | 85.4 | 67.6 | 0.627 |  |  | 
2 | CC(C)OCCNCc1ccc(-c2cccc(C(N)=O)c2)c(Cl)c1 |  |  |  | 41.2 | 11.1 | 5.23

Where two headings read alike, the source gives them in different places.
